According to patent US8933028B2, “Use of selective estrogen receptor modulator for joint fusion and other repair or healing of connective tissue” (priority 2010, dated 2015):

Tests used:
Assay type in all cases: in vivo, human
sacroiliac joint [1] = assay: Sacroiliac joint fusion surgeries performed with and without exogenous BMP (open procedure)
Experimental: A series of sacroiliac joint fusion surgeries were performed using an open procedure to expose the sacroiliac joint. Exogenous BMP treatment was introduced at the site of surgery to some patients. The union and non-union rate of the sacroiliac joint 3 month intervals after the surgeries were compared. […] Specifically, BMP-2 (Infuse™ from Medtronic) was placed into the site in association with a collagen sponge along with a spinal fusion cage and bone graft. The union and non-union frequencies of sacroiliac joint fusion surgeries performed using the open procedure with and without exogenous BMP are analyzed and the results are listed in Table 1. Although there are variations in the techniques used in the cases, and most of the with-BMP cases came later in the series, a chi-square test of the results has a p<0.00001, indicating statistically significant difference in the rate of fusion between the with and without BMP groups.
The influence of BMP on the outcome of the surgeries was further analyzed in different patient sub-groups. As shown in FIG. 2 (a), while non-smokers responded favorably for the use of BMP, the effect is more pronounced for smokers. In fact, the use of BMP has filled the fusion rate gap between the smokers and non-smokers. […] When BMP is used, however, both the smoker and non-smoker appear to have fusion rate of >90%. […] When BMP is used, the gap between the fusion rate of male and female patient shrank to less than 10% and both patient group appear to have fusion rate of 90% or greater.

sacroiliac joint [2] = assay: Sacroiliac joint fusion in post menopausal women using exogenous BMP-2 alone, computerized tomography; settings: postmenopausal females, BMP-2 only at surgery, computerized tomography three months after surgery, FIG. 3
sacroiliac joint [3] = assay: Effect of oral raloxifene on bone healing after sacroiliac joint fusion with BMP-2; settings: females over 60, BMP-2 at surgery in all patients
From the text: The patients involved in the study were female at age of over 60 years old.

[4] = number of cases, open procedure, BMP-2 (Infuse) on collagen sponge with spinal fusion cage and bone graft

B1: BMP: BMP-2 (Infuse™ from Medtronic) placed into the site in association with a collagen sponge (protein, UniProt P12643 283-396, looked up)
Bone morphogenetic protein 2: QAKHKQRKRLKSSCKRHPLYVDFSDVGWNDWIVAPPGYHAFYCHGECPFPLADHLNSTNHAIVQTLVNSVNSKIPKACCVPTELSAISMLYLDENEKVVLKNYQDMVVEGCGCR
modifications: collagen sponge
notes: BMP-2 (Infuse™ from Medtronic) placed into the site in association with a collagen sponge
gap between the fusion rate of male and female patient (sacroiliac joint [1]; BMP used, FIG. 2(b)): less than 10% | union rate versus cases without BMP (sacroiliac joint [1]; exogenous BMP delivered locally at the site of the fusion, chi-square p<0.00001): Significant improvement | fusion rate (sacroiliac joint [1]; male and female patient groups, BMP used, FIG. 2(b)): ≥ 90% | Non-Union (Sacroiliac Fusion Cases) (sacroiliac joint [1]; [4]): 1 | Union (Sacroiliac Fusion Cases) (sacroiliac joint [1]; [4]): 70 | fusion rate (sacroiliac joint [1]; smokers and non-smokers, BMP used, FIG. 2(a)): > 90% | incorporation of bone grafts (sacroiliac joint [2]): compromised incorporation | bone healing / maturity of bone (sacroiliac joint [3]; raloxifene 60 mg/day orally for three months after surgery): not as mature | bone graft incorporation into host bone (images) (sacroiliac joint [3]; three months after surgery, FIGS. 5-7): not fully incorporated
